What is called IC50 is the concentration that inhibits the measured activity by half. High values mean a need for much substance, low ones inhibition by little substance.

Chains of the proteins cited; added tags and fusions are not shown. Residues count along the entry.
UniProt P28845, 24-287: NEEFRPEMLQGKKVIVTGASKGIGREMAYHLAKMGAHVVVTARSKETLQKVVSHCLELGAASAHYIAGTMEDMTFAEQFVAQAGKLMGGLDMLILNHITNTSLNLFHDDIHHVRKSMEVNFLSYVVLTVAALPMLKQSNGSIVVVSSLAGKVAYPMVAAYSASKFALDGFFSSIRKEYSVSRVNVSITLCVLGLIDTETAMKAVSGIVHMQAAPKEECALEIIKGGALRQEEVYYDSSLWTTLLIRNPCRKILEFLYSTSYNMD

These results are taken from patent US8871208B2, “11-β-hydroxysteroid dehydrogenase type 1 (11β-HSD1) inhibitors and uses thereof” (AbbVie Inc., priority 2009, dated 2014).

For assay [1], the target named is T1, truncated human 11β-HSD-1 enzyme (24-287AA) (Homo sapiens, UniProt P28845).
T1 construct: truncated human 11β-HSD-1 enzyme (24-287AA); made in house; host or cells: E. coli (lysate)
The assay is described as follows: Human 11β-HSD-1 enzymatic SPA assay. It counts as biochemical. The procedure: (§1) The ability of test compounds to inhibit human 11β-HSD-1 enzymatic activity in vitro was evaluated in a Scintillation Proximity Assay (SPA). […] The reaction was stopped by adding a non-specific 11β-HSD inhibitor, 18β-glycyrrhetinic acid. The tritiated cortisol was captured by a mixture of an anti-cortisol monoclonal antibody and SPA beads coated with anti-mouse antibodies. The reaction plate was shaken at room temperature and the radioactivity bound to SPA beads was then measured on a β-scintillation counter. The 11β-HSD-1 assay was carried out in 96-well microtiter plates in a total volume of 220 μl. […] In order to drive the reaction in the forward direction, 1 mM G-6-P was also added. Solid compound was dissolved in DMSO to make a 10 mM stock followed by a subsequent 10-fold dilution with 3% DMSO in Tris/EDTA buffer (pH 7.4). 22 μl of titrated compounds was then added in triplicate to the substrate. Reactions were initiated by the addition of 10 μl of 0.1 mg/ml E. coli lysates overexpressing 11β-HSD-1 enzyme. […] After shaking for 30 minutes, plates were read on a liquid scintillation counter Topcount. Percent inhibition was calculated based on the background and the maximal signal. […] Percent of inhibition of each compound was calculated relative to the maximal signal and IC50 curves were generated. […]

For another assay, the target named is T2, human 11β-HSD-2 (Homo sapiens, UniProt P80365).
T2 sequence (P80365 1-405): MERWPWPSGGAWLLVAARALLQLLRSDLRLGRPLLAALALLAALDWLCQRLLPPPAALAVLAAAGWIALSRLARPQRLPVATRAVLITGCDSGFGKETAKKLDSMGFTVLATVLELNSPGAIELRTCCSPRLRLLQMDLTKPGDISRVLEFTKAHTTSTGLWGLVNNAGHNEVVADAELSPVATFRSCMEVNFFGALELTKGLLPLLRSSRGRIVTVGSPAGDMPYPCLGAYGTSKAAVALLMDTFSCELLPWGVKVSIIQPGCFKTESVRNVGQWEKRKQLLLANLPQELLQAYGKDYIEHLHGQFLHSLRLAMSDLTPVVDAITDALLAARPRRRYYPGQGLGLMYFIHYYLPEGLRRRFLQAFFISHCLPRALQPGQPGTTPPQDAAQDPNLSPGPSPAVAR
The assay is described as follows: Human 11β-HSD-2 enzymatic SPA assay. The assay is classed as biochemical. The settings on record: human enzyme. The procedure:
as §1

For the substance “(2E)-3-((E)-4-{[2-(4-Chlorophenoxy)-2-methylpropanoyl]amino}-1-adamantyl)acrylic acid”, the results for the IC50 (in assay [1]; against human 11β-HSD-2) were 0.03 µM and over 100 µM, respectively.
